Protein sequences, listed by entry. Tags and fused reporters are not part of them.
UniProt P10415, whole entry: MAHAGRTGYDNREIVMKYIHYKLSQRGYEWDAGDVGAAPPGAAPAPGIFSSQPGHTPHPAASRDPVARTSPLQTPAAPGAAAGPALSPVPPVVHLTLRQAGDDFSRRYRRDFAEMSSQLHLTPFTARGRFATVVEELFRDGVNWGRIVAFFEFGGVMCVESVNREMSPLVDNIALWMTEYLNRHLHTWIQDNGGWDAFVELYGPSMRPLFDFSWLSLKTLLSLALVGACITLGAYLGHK

In patent US20250034135A1, “ANTI-APOPTOTIC PROTEIN BCL-2 INHIBITOR, PHARMACEUTICAL COMPOSITION AND USES THEREOF” (HANGZHOU HEALZEN THERAPEUTICS CO., LTD., priority 2021, published 2025):

Target: BCL2 (Homo sapiens (Human), UniProt P10415)
Test: Molecular level activity test of anti-apoptotic protein BCL2 (HTRF, binding to Bim peptide)
Details: read-out: BCL2 nM (inhibitory activity, IC50)

Row | Structure (SMILES) | IC50 [nM]
1 | CC(C)c1ccccc1[C@@H]1CCCN1C1CC2(CCN(c3ccc(C(=O)NS(=O)(=O)c4cc([N+](=O)[O-])c(NC[C@H]5CC[C@](C)(O)CC5)c5[nH]cnc45)c(Oc4cnc5[nH]ccc5c4)c3)CC2)C1 | < 10
2 | CC(C)c1ccccc1[C@@H]1CN(Cc2cccnc2)CCN1C1CC2(CCN(c3cc(Oc4cnc5[nH]ccc5c4)c(C(=O)NS(=O)(=O)c4ccc(NCC5(F)CCOCC5)c([N+](=O)[O-])c4)cc3F)CC2)C1 | < 10
